# Measured values taken from ChEMBL document CHEMBL1144935, “Synthesis, biological evaluation, and receptor docking simulations of 2-[(acylamino)ethyl]-1,4-benzodiazepines as kappa-opioid receptor agonists endowed with antinociceptive and antiamnesic activity” (J Med Chem, 2003).
# Sequences of proteins named here, by UniProt entry; tags and fusion partners are left off. A change or cut given only in a name is not applied to a line headed by its entry.
# UniProt P35372, whole entry: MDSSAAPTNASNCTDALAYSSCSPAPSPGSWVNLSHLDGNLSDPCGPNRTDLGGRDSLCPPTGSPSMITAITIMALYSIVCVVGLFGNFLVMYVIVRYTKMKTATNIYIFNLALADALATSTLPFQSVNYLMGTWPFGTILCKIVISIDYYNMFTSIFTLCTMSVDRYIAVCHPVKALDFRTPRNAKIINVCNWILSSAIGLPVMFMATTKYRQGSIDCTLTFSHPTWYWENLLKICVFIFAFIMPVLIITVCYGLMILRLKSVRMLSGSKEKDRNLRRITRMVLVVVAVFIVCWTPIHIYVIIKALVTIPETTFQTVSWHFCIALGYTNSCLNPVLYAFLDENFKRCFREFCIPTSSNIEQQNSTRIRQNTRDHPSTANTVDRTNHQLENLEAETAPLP
# UniProt P41145: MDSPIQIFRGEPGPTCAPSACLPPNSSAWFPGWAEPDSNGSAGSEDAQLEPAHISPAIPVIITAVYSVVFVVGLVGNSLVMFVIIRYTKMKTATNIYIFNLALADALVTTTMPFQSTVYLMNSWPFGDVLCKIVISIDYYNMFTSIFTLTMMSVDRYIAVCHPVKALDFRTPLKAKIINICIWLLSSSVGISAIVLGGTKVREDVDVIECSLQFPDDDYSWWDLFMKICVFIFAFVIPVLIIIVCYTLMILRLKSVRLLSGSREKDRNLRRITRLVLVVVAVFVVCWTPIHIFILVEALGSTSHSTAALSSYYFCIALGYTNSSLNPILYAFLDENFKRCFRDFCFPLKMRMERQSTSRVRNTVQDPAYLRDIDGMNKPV
# Experiments:
# [1] = target: Mu-type opioid receptor (Homo sapiens, UniProt P35372); assay: Binding affinity determined against Opioid receptor mu 1 from human cloned receptor
# [2] = target: Kappa-type opioid receptor (Homo sapiens, UniProt P41145); assay: Binding affinity against opioid receptor kappa 1 from human cloned receptor
compound,measurement,setting,value
Oc1ccc2c3c1O[C@H]1c4[nH]c5ccccc5c4C[C@@]4(O)[C@@H](C2)N(CC2CC2)CC[C@]314 [NALTRINDOLE],Ki,[1],7.2 nM
same,Ki,[2],4.4 nM
